These results are taken from paper PMC10953480 (RSC Medicinal Chemistry, 2024).

Structures are written as SMILES.

The data set relates to Cos-7 cells.
For the compound `CN(C)CCCOc1ccc(S(=O)(=O)Nc2ccccc2Oc2ccccc2)cc1` [compound 42, 4-(3-(Dimethylamino)propoxy)-N-(2-phenoxyphenyl)benzenesulfonamide], the “concentration up to which well tolerated by Cos-7 cells” value was not above 100 µM.

Turning to `CN(C)CCCOc1ccc(S(=O)(=O)Nc2ccccc2Oc2ccc(C#N)cc2)cc1` [compound 45, N-(2-(4-Cyanophenoxy)phenyl)-4-(3-(dimethylamino)propoxy)benzenesulfonamide], the “concentration up to which well tolerated by Cos-7 cells” value is not above 100 µM. The result for `CN(C)CCCOc1ccc(S(=O)(=O)Nc2ccccc2Oc2ccc(C(F)(F)F)cc2)cc1` [compound 44, 4-(3-(Dimethylamino)propoxy)-N-(2-(4-(trifluoromethyl)phenoxy)phenyl)benzenesulfonamide] reads not above 100 µM.
